# pKi: −log10 of the molar value.
# By UniProt entry, the sequences of proteins in these tests, tags left out.
# UniProt P19327, whole entry: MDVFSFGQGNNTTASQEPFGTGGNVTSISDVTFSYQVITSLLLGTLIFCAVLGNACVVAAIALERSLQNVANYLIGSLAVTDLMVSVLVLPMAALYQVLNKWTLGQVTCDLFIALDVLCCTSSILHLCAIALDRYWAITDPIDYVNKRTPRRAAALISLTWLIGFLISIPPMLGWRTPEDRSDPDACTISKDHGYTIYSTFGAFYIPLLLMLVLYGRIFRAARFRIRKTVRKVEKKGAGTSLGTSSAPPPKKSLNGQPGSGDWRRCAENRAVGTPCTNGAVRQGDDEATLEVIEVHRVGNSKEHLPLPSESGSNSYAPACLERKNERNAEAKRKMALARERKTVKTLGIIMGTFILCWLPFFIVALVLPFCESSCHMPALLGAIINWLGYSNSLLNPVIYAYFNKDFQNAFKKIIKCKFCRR
# Target: 5-hydroxytryptamine receptor 1A (Rattus norvegicus, UniProt P19327)
row,Structure (SMILES),pKi
1,Cc1[nH]c2ccccc2c1C1=CCN(C)CC1,5.75
2,CN1CCC(c2c[nH]c3ccccc23)C(O)C1 (configuration not stated),5.26
